Sequences of proteins named here, by UniProt entry; tags and fusion partners are left off. Residues count along the entry.
UniProt P36544, 23-502 limits assumed: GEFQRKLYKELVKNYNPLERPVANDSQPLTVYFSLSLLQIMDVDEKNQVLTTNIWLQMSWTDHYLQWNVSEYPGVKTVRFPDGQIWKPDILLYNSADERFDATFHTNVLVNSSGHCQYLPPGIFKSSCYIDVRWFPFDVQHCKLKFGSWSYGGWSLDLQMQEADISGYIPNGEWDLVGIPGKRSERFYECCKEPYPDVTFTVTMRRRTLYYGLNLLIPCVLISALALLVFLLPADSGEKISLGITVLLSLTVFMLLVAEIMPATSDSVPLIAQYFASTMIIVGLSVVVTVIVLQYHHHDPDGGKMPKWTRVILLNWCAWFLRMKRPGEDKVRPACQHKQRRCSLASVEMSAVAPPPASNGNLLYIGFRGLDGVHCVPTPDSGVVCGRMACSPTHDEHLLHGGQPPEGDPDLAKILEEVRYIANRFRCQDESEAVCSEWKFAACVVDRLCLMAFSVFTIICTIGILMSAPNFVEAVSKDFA

According to US20190337910A1, “ALLOSTERIC MODULATORS OF NICOTINIC ACETYLCHOLINE RECEPTORS” (MERCK SHARP & DOHME CORP., priority 2016, published 2019):

Target: human α7 nAChR stably expressed in a HEK cell line (with human RIC-3) (Homo sapiens, UniProt P36544)
Test: Automated patch-clamp electrophysiology functional assay (Assay A), IonFlux HT, whole-cell population patch
Protocol: The α7 nAChR positive allosteric modulator (PAM) activity of the present compounds may be tested using assays known in the art. The α7 nAChR PAMs described herein have activities in an automated patch-clamp electrophysiology functional assay as described in the examples. The assay was performed using the IonFlux HT in a whole-cell, population patch configuration. See Golden et al. Assay Drug Dev. Technol. (2011) 9:608-619. The compounds were assessed for their ability to modulate the function of the human α7 nAChR stably expressed in a HEK cell line both in the presence, and in the absence of the natural α7 agonist acetylcholine. By performing a series of such measurements at different concentrations, the effective concentration of the α7 nAChR PAMs (EC50) was determined. See Spencer et al. Assay Drug Dev. Technol. (2012) 10:313-324.
Direct activation of α7 (agonism), and potentiation of acetylcholine-evoked α7 currents was determined as follows:
Automated Patch-Clamp Electrophysiology Functional Assay (Assay A)
Automated patch-clamp electrophysiology was performed using the IonFlux HT (Fluxion Biosciences Inc., San Francisco, Calif.) in the whole-cell, population patch configuration. Test compounds were assessed for their ability to modulate the function of the α7 nicotinic acetylcholine receptor both in the presence, and in the absence of the natural α7 agonist acetylcholine. A HEK cell line stably expressing both human RIC-3 and human α7 (PrecisION hnAChR α7/RIC-3, Eurofins Pharma, St. Charles, Mo.) was cultured in 175 cm^2 triple-layer tissue culture flasks to no more than 90% confluency in DMEM/F-12 growth media supplemented with 10% heat-inactivated fetal bovine serum, 1% non-essential amino acids, 0.625 μg/mL Puromycin, and 400 μg/mL Geneticin. Immediately prior to assay, cells were detached by first aspirating growth media, rinsing with Dulbecco's phosphate buffered saline, and then adding 10 mL of Accutase (Innovative Cell Technologies, San Diego, Calif.) to the flask and then incubating at 37° C. for 5 minutes. Detached cells were then recovered by the addition of 40 mL of CHO-serum-free media supplemented with 25 mM HEPES, and rocked gently in a 50 mL conical tube for 20 minutes prior to patch-clamp assay. After recovery, cells were pelleted by centrifugation at 1,000 RPM for 1 minute in a compact bench top centrifuge; recovery media was aspirated and cells were resuspended in external recording solution (150 mM NaCl, 5 mM KCl, 2 mM CaCl2, 1 mM MgCl2, 10 mM HEPES, 12 mM dextrose) to a density of 5.0×10^6 cells/mL. The cell suspension was added to the cell inlet wells on an IonFlux HT population patch plate which had previously been rinsed and primed with deionized H2O. Test compounds were serially diluted in DMSO and then resuspended to the final test concentration in external recording solution, with, or without 40 μM acetylcholine added to the external recording solution; test compounds were then transferred to the IonFlux HT population patch plate. Internal recording solution (110 mM TrisPO4, 28 mM TrisBase, 0.1 mM CaCl2, 2 mM MgCl2, 11 mM EGTA, 4 mM MgATP) was added to the internal recording solution inlet wells on the IonFlux HT patch plate previously loaded with cells and test compounds, and the plate loaded into the IonFlux HT instrument. A protocol was executed on the IonFlux HT to trap the cells, break into the cells, and establish the whole-cell recording configuration; cells were voltage-clamped at a holding potential of −60 mV for the duration of the experiment, all experiments were conducted at room temperature, and the IonFlux HT injection pressure was 8 psi for solution applications. Upon establishing the whole-cell configuration, external recording solution was perfused into the recording chambers for 120 seconds and then 40 μM acetylcholine was applied for 1 second and immediately washed off with external recording solution for 60 seconds. […]

[1] = read-out: α7 nAChR EC50, HEK cell line stably expressing human α7 and human RIC-3, 40 μM acetylcholine, holding potential −60 mV, room temperature
[2] = read-out: α7 nAChR Potency, automated patch-clamp electrophysiology functional assay (Assay A), potency class by EC50

| SMILES | pEC50 [1] | pEC50 [2] |
| --- | --- | --- |
| NS(=O)(=O)c1ccc([C@H]2C[C@@H]2c2ncc(-c3cccc(F)c3)s2)cc1 (relative stereo) | 5.80 | 5.30 to 6.30 |
| COc1ccc(Cl)cc1-c1noc([C@H]2C[C@@H]2c2ccc(S(N)(=O)=O)cc2)n1 |  | 4.30 to 5.30 |
| NS(=O)(=O)c1ccc([C@H]2C[C@@H]2c2nc(-c3ccccc3)co2)cc1 (relative stereo) |  | 5.30 to 6.30 |
| NS(=O)(=O)c1ccc([C@H]2C[C@@H]2c2nc(-c3cccc(F)c3)cs2)cc1 | 5.31 | 5.30 to 6.30 |
| Cc1ccc(F)cc1-c1noc([C@@H]2[C@@H](c3ccc(S(N)(=O)=O)cc3)C2(C)C)n1 (relative stereo) |  | 5.30 to 6.30 |
| CC1(C)C(c2ccc(S(N)(=O)=O)cc2)C1c1nnc(-c2ccc(F)cc2F)s1 (stereo not drawn) | 6.09 | 5.30 to 6.30 |

pEC50: −log10 of the molar value. Read-outs that look alike come from different tables or passages of the source.
